From ChEMBL document CHEMBL5052830, “Foxm1 inhibitor compositions and methods of using the same” (2021)

Amino acid sequences for entries named in this document (tags omitted).
UniProt P03372, whole entry: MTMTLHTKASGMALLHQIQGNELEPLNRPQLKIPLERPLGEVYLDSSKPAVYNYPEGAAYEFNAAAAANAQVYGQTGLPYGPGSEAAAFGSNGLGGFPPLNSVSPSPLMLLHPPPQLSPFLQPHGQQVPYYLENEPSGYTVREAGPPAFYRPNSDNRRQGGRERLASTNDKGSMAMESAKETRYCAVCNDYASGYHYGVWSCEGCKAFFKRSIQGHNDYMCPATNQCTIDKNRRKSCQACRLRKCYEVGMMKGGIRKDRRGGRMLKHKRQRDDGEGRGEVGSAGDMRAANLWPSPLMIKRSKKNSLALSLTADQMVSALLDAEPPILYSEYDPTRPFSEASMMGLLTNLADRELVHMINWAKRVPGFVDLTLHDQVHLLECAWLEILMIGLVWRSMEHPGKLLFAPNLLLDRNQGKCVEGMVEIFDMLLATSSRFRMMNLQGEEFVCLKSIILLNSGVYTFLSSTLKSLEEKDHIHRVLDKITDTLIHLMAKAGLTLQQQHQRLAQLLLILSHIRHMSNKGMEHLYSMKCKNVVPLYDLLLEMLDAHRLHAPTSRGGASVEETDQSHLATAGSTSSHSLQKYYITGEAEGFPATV

Target: Estrogen receptor (Homo sapiens) (UniProt P03372)
Assay: Binding affinity towards estrogen receptor alpha (unknown origin)

RBA | Structure (SMILES)
0.12% | CN1CCN(CCCCCCOc2ccc(C(=C3C4CC5CC(C4)CC3C5)c3ccc(Cl)cc3)cc2)CC1
1.17% | CCN(CC)CCCCCCOc1ccc(C(=C2C3CC4CC(C3)CC2C4)c2ccc(Cl)cc2)cc1
